Apparent affinities of Ab-14 variants for a coronavirus HR2 peptide

Values reported by Li et al. 2023, doi:10.1038/s41467-023-39022-2 (FLAb copy).

Antigen: PDVDLGDISGINAS, a 14-residue peptide of the SARS-CoV-2 spike HR2 region.

The variants keep the light chain, the linker and the frameworks of Ab-14 (scFv order VH, a 15-residue (Gly4Ser)3 linker, VL).
VH: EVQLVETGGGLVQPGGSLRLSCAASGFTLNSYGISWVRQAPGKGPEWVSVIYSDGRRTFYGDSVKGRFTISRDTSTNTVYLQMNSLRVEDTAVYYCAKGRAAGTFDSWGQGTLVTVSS
VL: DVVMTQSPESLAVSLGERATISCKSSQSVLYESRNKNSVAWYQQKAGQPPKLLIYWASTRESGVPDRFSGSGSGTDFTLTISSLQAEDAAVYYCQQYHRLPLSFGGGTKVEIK

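Phage display of a naive human antibody library on the peptide gave the parent. This is the validation round: designs drawn from the data on random variants, tested in the same kind of assay. Group labels follow the data file (Ctrl: baseline library sampled from a position-specific scoring matrix, with some repeated check sequences; Rand: our label for a block that the file lists under HC and that is probably the random mutants of the ten best first-round binders; En: ensemble of fine-tuned language models; GP: Gaussian process model; GPLM: also part of the Gaussian process libraries; HC: hill climbing; Gen: genetic algorithm; Gibbs: Gibbs sampling; a sequence that several methods proposed may carry one label only). AlphaSeq pools MATa yeast showing the antibodies with MATalpha yeast showing the peptide. Mating (16 h, 30 °C) was followed by selection of diploids and sequencing of their barcodes. Read counts were normalised to the haploid input and turned into Kd by a linear fit to BCL2-family pairs of known affinity, for each replicate. There are six technical replicates.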

Variants are written as CDR1, CDR2 and CDR3 of the heavy chain (limits as in the source). Parent: GFTLNSYGIS, VIYSDGRRTFYGDSVK, GRAAGTFDS.
Affinities are written as log10 Kd with Kd in nM; a lower number is a better binder.
Averages over replicates are reported, and they cover detected replicates only.
"nd" means that the variant was in the library but no mating with the target was seen in any replicate; the authors take this as a sign of poor binding, and no number exists.
Three control strains display no target. For all heavy chain designs, 1% of the pairings with them gave a signal, with a median of 2.08 and one signal in twenty below 0.84, so weak values seen in few replicates may be background.
Of ten entries with the parent sequence, four were seen in most replicates (averages 0.34 to 2.37), three in one and three in none, so single entries are noisy.
The range of this assay differs from that of the first round, and the authors advise against merging the two.
In the paper, a design with two or fewer of six values counts as a poor binder.

nd (0 of 6 replicates): GFTLVSYGIS | VIYSDGRRTFYGDSVK | GRAAGTALS [Rand].
0.01 (6 of 6 replicates): GFQLNEYGIS | VIYSDGRRTFYGDSVK | GQTAGTFDL [GP_Gibbs].
nd (0 of 6 replicates): GFNLDEYGVS | VIYADGHRTAYVNTVK | GKTVFVLFD [En_Gibbs].
-0.53 (6 of 6 replicates): GFDLNEYGIS | VIYADGVRTAYVDSVK | GQNAGTFDV [En_Gen].
nd (0 of 6 replicates): GFDINEYGIS | VIYADGTKTAYANTVK | GKYVGTFVD [En_Gibbs].
-0.02 (6 of 6 replicates): GFDLNEYGIS | VIYADGRRTAYADNVK | GEVAGTFIV [En_HC].
0.29 (6 of 6 replicates): GFTLNSYGIS | VIYSDGKRTFYGDNVK | GREAGTFDS [GP_Gibbs].
1.09 (6 of 6 replicates): GFSLNSYGIS | VIYSDGRRTAYGDSVK | GWAAGTFDS [GP_Gen].
1.67 (5 of 6 replicates): KFTLNEYGIS | VIYSDGRRTFYTDSVK | GRQAGTFDS [GP_HC].
nd (0 of 6 replicates): GFDLNQYGYS | VIYSDGRRTFYGDSVK | GRAAGTFDS [Ctrl].
0.25 (6 of 6 replicates): GFSLNSYGIS | VIYSDGRRTFYIDSVK | GREAGTFDS [GPLM_Gen].
nd (0 of 6 replicates): MFSLNSYGIS | VIYSDGRRTFYIDSVK | GKAAGTFDS [GP_Gibbs].
0.44 (6 of 6 replicates): GFSLNDYGIS | VIYSDGRRTFYHDSVK | GRLAGTFDS [GP_Gibbs].
0.95 (6 of 6 replicates): GFSLNEYGIS | VIYSDGRRTFYGDSVK | GWAAGTFDS [GPLM_Gen].
1.33 (3 of 6 replicates): GFSLKSYGIS | VIYSDGRRTFYGDSVK | GRTAGTFDS [GPLM_Gen].
-0.47 (6 of 6 replicates): GFDLNEYGIS | VIYADGVRTAYADSVK | GNIAGTFDI [En_Gen].
nd (0 of 6 replicates): GFTINSYGIS | VIYSDGRRTFYADSVK | LRAAGTFDS [Ctrl].
1.19 (3 of 6 replicates): GFTLESYGIS | VIYSDGLRTFYGDSVK | GRAAGTFDS [Ctrl].
0.56 (6 of 6 replicates): GFELNSYGIS | VIYSDGRRTFYGDSVK | GVTAGTFDS [GPLM_Gibbs].
1.05 (6 of 6 replicates): NFDLNSYGIS | VIYSDGRRTFYGDSVK | GQTAGTFDS [GP_Gen].
0.68 (1 of 6 replicates): GETLNSYGIS | VIYSDGRRQFYGDSVK | GRLAGTFDS [Ctrl].
1.76 (3 of 6 replicates): GFTLNSYGIS | VIYSDGRRTFYSDSVK | GREAGTFKS [GP_HC].
0.08 (6 of 6 replicates): GFDLNEYGIS | VIYSDGRRTFYGDPVK | GRTAGTFDS [GP_Gen].
1.15 (6 of 6 replicates): GFDLNSYGIS | VIYSDGRRTFYLDSVK | GRTAGTFDT [GP_Gibbs].
1.88 (4 of 6 replicates): GFTLNSYGIS | VIYSDGRRTFYGDSVK | GRNAGTFDS [Ctrl].
0.49 (6 of 6 replicates): GFTLNEYGIS | VIYSDGRRTFYGDSVK | GRIAGTFDG [GPLM_HC].
-0.31 (6 of 6 replicates): GFSLNSYGIS | VIYSDGRRTFYGDQVK | GRTAGTFDS [GPLM_Gen].
nd (0 of 6 replicates): GFTGNDYGIS | VIYSDGRRTYYGDSVK | GRAALTFIS [Rand].
0.21 (6 of 6 replicates): GFDLNEYGIS | VIYADGRRTSYIDSVK | GNEAGTFDS [En_HC].
0.65 (6 of 6 replicates): GFTLNSYGIS | VIYSDGERTFYTDSVK | GRAAGTFDS [GP_HC].
-0.48 (6 of 6 replicates): GFDLNEYGIS | VIYADGMRSYYADSVK | GENAGTFDM [En_Gen].

The first 4 entries again:

CDR-H1,CDR-H2,CDR-H3,group,"mean, log10 nM",seen in
GFTLVSYGIS,VIYSDGRRTFYGDSVK,GRAAGTALS,Rand,nd,0 of 6
GFQLNEYGIS,VIYSDGRRTFYGDSVK,GQTAGTFDL,GP_Gibbs,0.01,6 of 6
GFNLDEYGVS,VIYADGHRTAYVNTVK,GKTVFVLFD,En_Gibbs,nd,0 of 6
GFDLNEYGIS,VIYADGVRTAYVDSVK,GQNAGTFDV,En_Gen,-0.53,6 of 6